Test results: PubChem BioAssay AID493083 (Broad Institute, 2011)
The list shows a part of the results. Entries with a potency or affinity are not part of this list. Calls of active or inactive are those of the source.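 The calls were made as follows: active = compounds lowering signal whose fitted AC50 is at most ten times the top tested dose; inconclusive = flat fit with moderate inhibition, or poor curve fit; inactive = the rest.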

Test: decrease of heat-induced HSF-1 GFP reporter, dose response, NIH3T3 R4 cells, GFP/RFP, cherry-pick, set 3 (AID 493083);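 also: 0% = neutral control wells and -100% = didemnin B positive control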
Details: NIH3T3 R4 HSF-1 GFP reporter, heat shock, 48 h; at 19.5 µM (top of the series)

| SMILES | activity change, negative = inhibition |
| --- | --- |
| O=C(OC1CN2CCC1CC2)c1cccc(Cl)c1 (stereo unspecified) | inactive: 0.281% |
